{"source": "PubChem BioAssay AID602141", "about": "(Sanford-Burnham Center for Chemical Genomics, 2011)", "note": "Only a part is listed here, and it is no random draw. Active and inactive are the calls of the source.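 Rule for the calls: active = corrected activity change at or below -50% at 5 µM; inactive = the rest.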", "data": [{"test": "KKLEB cell viability reduction – uHTS, fluorescence assay plates, cytotoxicity control for CF NF-kB inhibitor project, primary screen (AID 602141)", "conditions": "KKLEB CF airway cells viability, ATPlite luminescence, overnight; at 5 µM; hits give low values; cells stimulated with P. aeruginosa culture filtrate", "values": [{"smiles": "c1nnnn1CCn1cnnn1", "activity change (cytotoxicity)": "inactive: -12.2%"}, {"smiles": "O=P(Nc1nccs1)(c1ccccc1)c1ccccc1", "activity change (cytotoxicity)": "inactive: 1%"}, {"smiles": "CC(C)C(=O)NC(Sc1ccccc1)C(Cl)(Cl)Cl", "note": "(stereo unspecified)", "activity change (cytotoxicity)": "inactive: -7.6%"}, {"smiles": "Nc1ccc([As](=O)(O)c2ccc([N+](=O)[O-])cc2)cc1", "activity change (cytotoxicity)": "inactive: -3.8%"}, {"smiles": "C(Cc1nn[nH]n1)Cc1nn[nH]n1", "activity change (cytotoxicity)": "inactive: 1.6%"}, {"smiles": "O=C(OC1CN2CCC1CC2)c1cccc(Cl)c1", "note": "(stereo unspecified)", "activity change (cytotoxicity)": "inactive: 2.9%"}, {"smiles": "CC(=O)NC(SC(=S)N(C)C)C(Cl)(Cl)Cl", "note": "(stereo unspecified)", "activity change (cytotoxicity)": "inactive: -13.2%"}, {"smiles": "O=[N+]([O-])c1ncn(CCn2cnc([N+](=O)[O-])n2)n1", "activity change (cytotoxicity)": "inactive: 3%"}, {"smiles": "O=[N+]([O-])c1ccc(O)c(/C=N/Nc2ccc([N+](=O)[O-])cc2[N+](=O)[O-])c1", "activity change (cytotoxicity)": "active: -63.7%"}, {"smiles": "O=[As](O)(c1ccccc1)c1ccc(O)cc1", "activity change (cytotoxicity)": "inactive: -3.8%"}, {"smiles": "C[C@H]1OP(=O)(Oc2ccccc2)[C@H](O)[C@H](O)[C@H]1N=[N+]=[N-]", "note": "(stereo partly specified)", "activity change (cytotoxicity)": "inactive: 9.9%"}, {"smiles": "O=P(Nc1nc2ccccc2s1)(c1ccccc1)c1ccccc1", "activity change (cytotoxicity)": "inactive: -10.3%"}, {"smiles": "Nc1ccc(CCCCOc2ccccc2)cc1", "activity change (cytotoxicity)": "inactive: -0.3%"}, {"smiles": "COc1ccc(N)c([N+](=O)[O-])c1[N+](=O)[O-]", "activity change (cytotoxicity)": "inactive: 9.6%"}, {"smiles": "CN(C)C1(CNC(=O)c2ccc(Cl)c(S(N)(=O)=O)c2)CCCCC1", "activity change (cytotoxicity)": "inactive: -0.7%"}, {"smiles": "O=P(Nc1ccccn1)(c1ccc(Br)cc1)c1ccc(Br)cc1", "activity change (cytotoxicity)": "inactive: -2%"}, {"smiles": "CN(C)C(=O)Oc1noc2ccccc12", "activity change (cytotoxicity)": "inactive: 7.2%"}, {"smiles": "O=c1c2cc([N+](=O)[O-])ccc2[nH]c2c([N+](=O)[O-])cc([N+](=O)[O-])cc12", "activity change (cytotoxicity)": "inactive: -34.4%"}, {"smiles": "Cc1ccccc1OP(=O)(Nc1ccccn1)Oc1ccccc1C", "activity change (cytotoxicity)": "inactive: -12.6%"}, {"smiles": "CC(NC(=O)COC(=O)C(O)(c1ccccc1)c1ccccc1)c1ccccc1", "note": "(stereo unspecified)", "activity change (cytotoxicity)": "inactive: -2.3%"}, {"smiles": "CC(=O)NC(SC(=S)N(CC(C)C)CC(C)C)C(Cl)(Cl)Cl", "note": "(stereo unspecified)", "activity change (cytotoxicity)": "inactive: -4%"}, {"smiles": "Cc1ccc(OP(=O)(Nc2ccccn2)Oc2ccc(C)cc2)cc1", "activity change (cytotoxicity)": "inactive: 2.1%"}, {"smiles": "COC(=O)c1cc2c(s1)N=C(c1ccccc1)N(C)P2(=O)N1CCOCC1", "note": "(stereo unspecified)", "activity change (cytotoxicity)": "inactive: -3.2%"}, {"smiles": "CCC(=O)N1C2C3N(C(=O)CC)C1C1N(C(=O)CC)C(C(N1C(=O)CC)N3C(=O)CC)N2C(=O)CC", "activity change (cytotoxicity)": "inactive: -8%"}, {"smiles": "O=C(OC1CN2CCC1CC2)c1ccccc1", "note": "(stereo unspecified)", "activity change (cytotoxicity)": "inactive: 5.3%"}, {"smiles": "O=P1(N(CCCl)CCCl)OCCC2CCCCN21", "note": "(stereo unspecified)", "activity change (cytotoxicity)": "inactive: 7.4%"}, {"smiles": "O=C(NC1CCS(=O)(=O)C1)NP(=S)(Oc1ccccc1)Oc1ccccc1", "note": "(stereo unspecified)", "activity change (cytotoxicity)": "inactive: -2%"}, {"smiles": "CCNC(=S)/N=C(\\N)N[N+](=O)[O-]", "activity change (cytotoxicity)": "inactive: -3%"}, {"smiles": "Cc1ccc(NP(=O)(Oc2cccc(C)c2)Oc2cccc(C)c2)nc1", "activity change (cytotoxicity)": "inactive: 9.8%"}, {"smiles": "c1ccc(-c2nn[nH]n2)c(-c2nn[nH]n2)c1", "activity change (cytotoxicity)": "inactive: -4.2%"}, {"smiles": "CC(=O)Nc1ccc(Oc2c([N+](=O)[O-])cc([N+](=O)[O-])cc2[N+](=O)[O-])cc1", "activity change (cytotoxicity)": "inactive: 6.3%"}, {"smiles": "CC(=O)Nc1ccc([As](=O)(O)O)c(O)c1", "activity change (cytotoxicity)": "inactive: 0.7%"}, {"smiles": "COC(=O)C1(C)COP(=O)(NCc2ccccc2)OC1", "note": "(stereo unspecified)", "activity change (cytotoxicity)": "inactive: -4.1%"}, {"smiles": "N#C/C(=C\\c1ccc(N(CCBr)CCBr)cc1)C(N)=O", "activity change (cytotoxicity)": "inactive: -3.8%"}, {"smiles": "CC(=O)c1ccc(N2CC2c2ccncc2)cc1", "note": "(stereo unspecified)", "activity change (cytotoxicity)": "inactive: 3%"}, {"smiles": "C[C@@H]1C=CCP(=O)(Oc2ccccc2)O1", "note": "(stereo partly specified)", "activity change (cytotoxicity)": "inactive: 0.7%"}, {"smiles": "C[C@H]1OP(=O)(Oc2ccccc2)C[C@@H]2O[C@@H]21", "note": "(stereo partly specified)", "activity change (cytotoxicity)": "inactive: -12.2%"}, {"smiles": "Cc1ccccc1CN(C)C(=O)COC(=O)C(O)(c1ccccc1)c1ccccc1", "activity change (cytotoxicity)": "inactive: 1.6%"}, {"smiles": "CCc1cc(O)c([N+](=O)[O-])c(C)c1[N+](=O)[O-]", "activity change (cytotoxicity)": "inactive: -7.2%"}, {"smiles": "CC(C)(C)C(=O)NC(Sc1ccccc1)C(Cl)(Cl)Cl", "note": "(stereo unspecified)", "activity change (cytotoxicity)": "inactive: -3.1%"}, {"smiles": "CCOc1ccc(C2=NCC(CBr)S2)cc1", "note": "(stereo unspecified)", "activity change (cytotoxicity)": "inactive: -11.4%"}, {"smiles": "O=P1(Nc2nc3ccc(Cl)cc3s2)COc2ccccc2O1", "note": "(stereo unspecified)", "activity change (cytotoxicity)": "inactive: -5.9%"}, {"smiles": "O=[N+]([O-])C1C(O)C(O)C([N+](=O)[O-])C(O)C1O", "note": "(stereo unspecified)", "activity change (cytotoxicity)": "inactive: 0.3%"}, {"smiles": "CC(C)CC(=O)NC(Sc1ccc(Cl)cc1)C(Cl)(Cl)Cl", "note": "(stereo unspecified)", "activity change (cytotoxicity)": "inactive: -15%"}, {"smiles": "Nc1cc(N)c2nonc2c1[N+](=O)[O-]", "activity change (cytotoxicity)": "inactive: 11.1%"}, {"smiles": "O=C(NC(Sc1ccncn1)C(Cl)(Cl)Cl)c1ccccc1", "note": "(stereo unspecified)", "activity change (cytotoxicity)": "inactive: 2.3%"}, {"smiles": "Oc1ccccc1CNc1ccccn1", "activity change (cytotoxicity)": "inactive: 6.6%"}, {"smiles": "Cc1ccc(OP(=O)(Nc2nccs2)Oc2ccc(C)cc2)cc1", "activity change (cytotoxicity)": "inactive: 7%"}, {"smiles": "COc1ccccc1OP(=O)(Nc1ccc(C)cn1)Oc1ccccc1OC", "activity change (cytotoxicity)": "inactive: -0.4%"}, {"smiles": "Clc1ccc(Cl)c(NC2=NCC(CBr)S2)c1", "note": "(stereo unspecified)", "activity change (cytotoxicity)": "inactive: -3.5%"}, {"smiles": "CN1CCCC(OC(=O)C(c2ccccc2)c2ccccc2)C1", "note": "(stereo unspecified)", "activity change (cytotoxicity)": "inactive: -0.4%"}, {"smiles": "NC(=O)c1cc([N+](=O)[O-])cc([N+](=O)[O-])c1N", "activity change (cytotoxicity)": "inactive: 14.1%"}, {"smiles": "Cc1ccc(N/C(=N/P(=O)(N2CCOCC2)N2CCOCC2)N2CCOCC2)cc1", "activity change (cytotoxicity)": "inactive: -16.4%"}, {"smiles": "CN(C(=O)Cc1ccc(Cl)c(Cl)c1)[C@H]1CCCC[C@H]1N1CCCC1", "activity change (cytotoxicity)": "inactive: 2.7%"}, {"smiles": "CCN(N=Nc1nonc1N)c1nonc1N", "activity change (cytotoxicity)": "inactive: 2.3%"}, {"smiles": "Nc1cccc2ccc([As](=O)(O)O)cc12", "activity change (cytotoxicity)": "inactive: -4.8%"}, {"smiles": "CN(C(=O)Cc1ccc(Cl)c(Cl)c1)[C@H]1CCCC[C@@H]1N1CCCC1", "activity change (cytotoxicity)": "inactive: -18%"}, {"smiles": "Cc1ccc(NP(=O)(Oc2ccccc2F)Oc2ccccc2F)nc1", "activity change (cytotoxicity)": "inactive: -1.9%"}, {"smiles": "CCOP(=O)(Nc1ccccc1)OCC", "activity change (cytotoxicity)": "inactive: 8.4%"}, {"smiles": "CCCC1OP(N)(=O)OCC1CC", "note": "(stereo unspecified)", "activity change (cytotoxicity)": "inactive: 0.6%"}, {"smiles": "O=C(O)c1ccccc1[As](=O)(O)O", "activity change (cytotoxicity)": "inactive: -0.9%"}, {"smiles": "CC(=O)Nc1ccc([As](=O)(O)O)cc1", "activity change (cytotoxicity)": "inactive: 19.5%"}, {"smiles": "CN(C)P(=O)(N(C)C)n1c(Nc2ccccc2)nnc1-c1ccccc1", "activity change (cytotoxicity)": "inactive: -21.5%"}, {"smiles": "O=P(Nc1nc2ccc(Cl)cc2s1)(c1ccccc1)c1ccccc1", "activity change (cytotoxicity)": "inactive: -7.9%"}, {"smiles": "O=[N+]([O-])c1cccc(NC2=NCC(CBr)S2)c1", "note": "(stereo unspecified)", "activity change (cytotoxicity)": "inactive: -13.2%"}, {"smiles": "COC(=O)C1(C)COP(=O)(Nc2ccccc2)OC1", "note": "(stereo unspecified)", "activity change (cytotoxicity)": "inactive: -12.7%"}]}]}
